From patent publication US20260053892A1, “Induction and Expansion of Regulatory T Cells” (Board of Regents of the University of Nebraska, priority 2022, published 2026)

Test system: Tregs
Assay: Treg profiles by flow cytometry in blood, lymph nodes and spleen of treated mice
Type: in vivo, C57BL/6 male mice
Protocol: C57BL/6 male mice (5-6 weeks old) were purchased from Jackson Laboratories (Bar Harbor, ME). Mice were weighed and divided into four treatment groups (n=3 per group): 1) PBS (phosphate-buffered saline; control), 2) GM-CSF (0.1 mg/kg), 3) low dose IL-2 (2.5×10^4 IU; human recombinant interleukin-2 (PeproTech, Cranbury, NJ)), and 4) GM-CSF (0.1 mg/kg) and low dose IL-2 (2.5×10^4 IU). Following a period of acclimation, mice were injected intraperitoneally (i.p.) with daily GM-CSF (Group 4) (Days 0-4). On Days 5-9, daily treatment began for Groups 1-3 and IL-2 treatment began for Group 4. On Day 10, the mice were sacrificed, blood was collected, and spleen and lymph nodes were harvested.
Following treatment, whole blood, lymph nodes and spleens were collected to determine T-cell profiles via flow cytometric analysis. Peripheral blood, lymph nodes, and splenocytes were fluorescently labeled using antibodies against cell surface antigens including CD3, CD4, CD25, CD8, CD19, CD127, ICOS, GITR, CD39, CD62L, CD44, GITR, and CTLA-4, and for the intracellular markers FoxP3 and STAT5. Whole blood, lymph nodes, and splenocytes were labeled with PerCP Cyanine 5.5-anti-CD3 (eBioscience/Thermo Fisher Scientific, Waltham, MA), APC-anti-CD19 (eBiosciences), PE-anti-CD25 (eBiosciences), PE-cyanine7-anti-CD4 (eBiosciences), PerCP-eFluor710-anti-CD39 (eBiosciences), Alexa Fluor™ 488-anti-CD278 (ICOS) (Biolegend, San Diego, CA), FITC-anti-CD127 (Biolegend), FITC-anti-CD44, Alexa Fluor™ 488-anti-CTLA-4, Alexa Flour™ 700-anti-GITR, FITC-anti-CD8, and PerCP Cyanine 5.5-anti-CD62L. Intracellular staining was performed following permeabilization for 45 minutes at 4° C. Cells were labeled with APC-anti-FoxP3 (eBioscience) or anti-STAT5-Pacific Blue. Samples were analyzed with an LSRII flow cytometer and FACSDiva™ Software (BD Biosciences, San Diego, CA).
All values are expressed as mean±SEM using ANOVA (mean±SEM, n=3). *=p≤0.05; **=p≤0.01; *** p≤0.001. Data were analyzed using GraphPad Prism 9.3.1 software (La Jolla, CA).

human recombinant interleukin-2 [IL-2]
CD4+CD25+FOXP3+ Tregs (blood, FIG. 4): increase
CD25+CD127− Tregs (blood, FIG. 5): increase
CD25+ICOS+ Tregs (blood, FIG. 7): did not significantly induce
CD4+CD25+ Tregs (lymph nodes, FIG. 2): only a mild increase
CD25+GITR+ Tregs (lymph nodes, FIG. 9): small increase
CD4+CD25+FOXP3+ Tregs (spleen, FIG. 3): increase
CD25+CD127− Tregs (spleen, FIG. 6): increase
CD25+ICOS+ Tregs (spleen, FIG. 8): did not significantly induce
CD25+CD39+ Tregs (spleen, FIG. 10): increase
CD25+CD62L− Tregs (spleen, FIG. 11): small increase
